Assay: Aqueous solubility of the compound under shaking condition by LC-MS/MS analysis
Type: physicochemical
Conditions: buffer

Cl.Nc1ncc(-c2cnc3ccc(C(=O)N4CCCCC4)cc3n2)cc1Cl
solubility thermodynamic: 2.1 µg/mL

Source: ChEMBL document CHEMBL5214995, “Orally Bioavailable Quinoxaline Inhibitors of 15-Prostaglandin Dehydrogenase (15-PGDH) Promote Tissue Repair and Regeneration” (J Med Chem, 2022)
